Among the data in ChEMBL document CHEMBL4376894 (J Med Chem, 2020) are Ratio and half-life values, retold here.

Series [1] can be described thus: Ratio of half life of compound to verapamil in mouse liver microsomes at 1 uM in presence of NADPH by LC-MS/MS analysis. In kind it is ADME, Microsome. A general note: Liver microsomes are vesicles of endoplasmic reticulum, rich in cytochrome P450 enzymes.
The nature of a further series: in vitro. To be noted: mouse, liver microsomes.

Structures are written as SMILES.

For `CCOc1ccc(CN2Cc3ccccc3C2)cc1CNC(=O)[C@@H](N)Cc1c(C)cc(O)cc1C.O=C(O)C(F)(F)F`, in series [1], the Ratio is listed as 2.7. Moreover, the half-life (in general, how long it takes for the measured level to halve) at 1 µM in “in vitro” was in the range of 25.7 to 70.4 min.

On to `CCOc1ccc(CN(C)Cc2ccccc2)cc1CNC(=O)[C@@H](N)Cc1c(C)cc(O)cc1C.O=C(O)C(F)(F)F`, for which, in series [1], the Ratio was 1.4. Further, in “in vitro”, the half-life at 1 µM was 27.6 to 39.2 min.

`CCOc1ccc(CNCc2ccccc2)cc1CNC(=O)[C@@H](N)Cc1c(C)cc(O)cc1C.O=C(O)C(F)(F)F`: the Ratio in series [1] is reported as 1.9. In “in vitro”, this compound showed a half-life at 1 µM of 27.6 to 51.5 min.

For `CCOc1ccc(C(=O)N2Cc3ccccc3C2)cc1CNC(=O)[C@@H](N)Cc1c(C)cc(O)cc1C.O=C(O)C(F)(F)F`, in series [1], the Ratio was 3.3. In “in vitro”, this compound came in with a half-life at 1 µM of 29.9 to 97 min.

Consider `CCOc1ccc(C(=O)N2CCCC2)cc1CNC(=O)[C@@H](N)Cc1c(C)cc(O)cc1C.O=C(O)C(F)(F)F`, for which the Ratio in series [1] was 5.3. Also, the half-life at 1 µM in the series “in vitro” lay in the range of 25.7 to 137 min.

For the compound `CCOc1ccc(CN2CCc3ccccc3C2)cc1CNC(=O)[C@@H](N)Cc1c(C)cc(O)cc1C.O=C(O)C(F)(F)F`, in series [1], the Ratio came to 1.8. The same compound showed a half-life at 1 µM in the series “in vitro” of 29.9 to 52.9 min.
